The assay has as its system alpha-glucosidase (Saccharomyces cerevisiae). Description: Potency index, ratio of acarbose IC50 to compound IC50 for alpha-glucosidase (unknown origin). To be noted: Homo sapiens.

On to `O=C(Cn1cc(CSc2nnc(-c3ccccc3)c(-c3ccccc3)n2)nn1)Nc1cc(Cl)ccc1Cl`, for which the Ratio IC50 turned out to be 70.

The values above are taken from ChEMBL document CHEMBL4041478, “Synthesis, in vitro evaluation and molecular docking studies of novel triazine-triazole derivatives as potential α-glucosidase inhibitors” (Eur J Med Chem, 2017).
